Measured values published in patent US20230000808A1, “COMPOSITIONS AND METHODS EXCLUDING OR WITH REDUCED GLUTAMINE FOR THE TREATMENT OF HEMOGLOBINOPATHIES AND THALASSEMIAS” (AXCELLA HEALTH INC., priority 2019, published 2023).

Key:
HLMVEC = test: META-rank score, composite of VCAM1, ICAM1 and IL6 in the HLMVEC model; type: cell-based, human; settings: HLMVEC + TNF-α; lower score = more optimal; 20x HMDB / 5 mM
Method: Summary of results: As described, an ideal treatment is one that addresses the multifactorial pathology of SCD as represented by HLMVEC by reducing disease phenotypes (VCAM1, ICAM1, IL6). The ability of single amino acids and combinations to simultaneously impact these phenotypes was measured by a META-rank score (Tables 17 and 18). META-rank score is a composite measure that considers the optimal impact on all 3 phenotypes (e.g. decrease VCAM1, ICAM1, and IL6) in the HLMVEC model.

[1] = test system: RBCs of healthy whole blood; test: RBC deformability (Elongation Index, LORRCA ektacytometry), ex vivo TBHP oxidation of healthy whole blood; type: cell-based, human; settings: healthy donor 2
From the text: Whole blood from healthy African American and/or Hispanic donors was obtained from Research Blood Components, LLC based on the following donor selection criteria: Adult age (between 18 and 50 years), normal BMI (<30), and absence of other confounding clinical conditions. Whole blood from SCD donors were obtained from BioIVT based on the following donor selection criteria: Patients with genotypes HbSS, HbSC, HbS/β^0 and at least 1-2 months gap since last blood transfusion. Whole blood was shipped on ice on the same day as blood draw. Upon receipt, the blood sample was aliquoted and stored in the refrigerator until used for studies.
RBC deformability measurements were conducted with the Laser Optical Rotational Red Cell Analyzer (LORRCA) from RR Mechatronics in a temperature-controlled environment (37° C.). Briefly, an even layer of RBCs suspended in polyvinylpyrrolidone (PVP) is subjected to shear stress gradient (0.3 to 30 Pa) through two concentric cylinders and the resulting changes in RBC shape or deformability are measured by a laser beam diffraction pattern. The captured images of RBC shape in response to increasing shear stress are then analyzed by the LORRCA program to calculate Elongation Index (EI).
Healthy RBCs have higher deformability ≥0.5 EI and SCD RBCs have lower deformability or EI values as studied by LORRCA ektacytometry in the field. […] The induced hemolysis model in this disclosure involves use of tert-butyl hydroperoxide (TBHP) to lower EI of RBCs.
The ex vivo hemolysis study disclosed here involves overnight treatment of whole blood with vehicle as a control and specific amino acids followed by rapid oxidation (5 min) with TBHP. Method for oxidation of whole blood with tert-butyl hydroperoxide has been used in prior literature (Diederich L, et al, Front Physiol. 2018 May 11; 9:332). RBC deformability or shape changes are then measured with LORRCA ektacytometry.
Whole blood aliquots stored in the fridge were brought up to room temperature while gently shaking on a rocker at low speed for an hour to ensure gradual and uniform suspension of red blood cells prior to deformability measurements. Vehicle control used in the study was 1× Dulbecco's […]) and amino acids disclosed herein were added (at either final 10× or 2.5 mM concentration as indicated) to corresponding vehicle and amino acid treatment conditions. The samples were then incubated overnight at 37° C. The next day, 25 μl of whole blood was taken from each treatment condition and added to 5 mL Elon ISO viscous solution from RR Mechatronics. The sample was inverted 15-20 times to ensure proper mixing of the treated RBCs with the Elon ISO solution followed by loading the sample on LORRCA and capturing RBC deformability or shape measurements over the applied shear gradient. The remaining whole blood treatments were returned to incubator (37° C.) until deformability measurements were completed for all treatments. To the remaining whole blood treatment samples, TBHP solution (5.0-6.0 M in Decane, Sigma) was added at 2.5 mM final concentration from a 100 mM freshly prepared stock and incubated for further 5 min at 37° C. 25 μl of this TBHP-treated sample was immediately removed at the end of the 5 min incubation and added to the Elon ISO solution for RBC deformability measurement after oxidation. Included in the Tables 13-15 are EI measurements at ½ EImax shear stress 1.69 Pa and EImax shear stress 30 Pa from these studies and FIG. 1 captures EI measurements for all shear stress points for the indicated treatment conditions.

[2] = 10X amino acids/2.5 mM Nac, Cit, Car + 2.5 mM TBHP
[3] = + 2.5 mM TBHP, 10X amino acids/2.5 mM Nac, Cit, Car

SMILES | Meta-Rank (Table 18) (HLMVEC) | EI Fold Change Relative to Vehicle EImax (30 Pa) [1, 2] | EI Fold Change Relative to Vehicle ½ EImax (1.69 Pa) [1, 2] | Elongation Index (EI) EImax (30 Pa) [1, 2] | Elongation Index (EI) ½ EImax (1.69 Pa) [1, 2] | EI Fold Change Relative to Vehicle EImax (30 Pa) ([1]; + 2.5 mM TBHP) | EI Fold Change Relative to Vehicle ½ EImax (1.69 Pa) ([1]; + 2.5 mM TBHP) | Elongation Index (EI) EImax (30 Pa) [1, 3] | Elongation Index (EI) ½ EImax (1.69 Pa) [1, 3]
N=C(N)NCCC[C@H](N)C(=O)O [Arg] | 12.5 | – | – | – | – | – | – | – | –
N=C(N)NCCC[C@H](N)C(=O)O [Arginine] | – | 1.00 | 1.02 | 0.308 | 0.087 | 2.14 fold | 1.35 fold | 0.251 | 0.057
